Reference: patent publication US20150174068A1, “Apparatus, Composition, and Related Methods for Transdermal Delivery of Active Ingredients” (CURE IP HOLDINGS, LLC, priority 2011, published 2015)

Experiment: In vitro transdermal delivery of various active ingredients, Franz diffusion cells, excised human epidermis
Details: in Proprietary Encapsulation II (colloidal), over 24 hours, radiolabeled active

insulin
amount of active ingredient that penetrated the epidermis: Greater than 0.02%
